The target in assay [1] is BtuB fused to TF and His tag (S. Typhimurium) (UniProt P37409). Kind of assay: BLI. The settings on record: natural protein.
The target in assay [2] is OmpC fused to TF and His tag (S. Typhimurium) (UniProt P0A263). Description: BLI. The settings on record: natural protein.

Amino acid sequences for entries named in this document (tags omitted). Residues count along the entry.
UniProt P37409, 21-614: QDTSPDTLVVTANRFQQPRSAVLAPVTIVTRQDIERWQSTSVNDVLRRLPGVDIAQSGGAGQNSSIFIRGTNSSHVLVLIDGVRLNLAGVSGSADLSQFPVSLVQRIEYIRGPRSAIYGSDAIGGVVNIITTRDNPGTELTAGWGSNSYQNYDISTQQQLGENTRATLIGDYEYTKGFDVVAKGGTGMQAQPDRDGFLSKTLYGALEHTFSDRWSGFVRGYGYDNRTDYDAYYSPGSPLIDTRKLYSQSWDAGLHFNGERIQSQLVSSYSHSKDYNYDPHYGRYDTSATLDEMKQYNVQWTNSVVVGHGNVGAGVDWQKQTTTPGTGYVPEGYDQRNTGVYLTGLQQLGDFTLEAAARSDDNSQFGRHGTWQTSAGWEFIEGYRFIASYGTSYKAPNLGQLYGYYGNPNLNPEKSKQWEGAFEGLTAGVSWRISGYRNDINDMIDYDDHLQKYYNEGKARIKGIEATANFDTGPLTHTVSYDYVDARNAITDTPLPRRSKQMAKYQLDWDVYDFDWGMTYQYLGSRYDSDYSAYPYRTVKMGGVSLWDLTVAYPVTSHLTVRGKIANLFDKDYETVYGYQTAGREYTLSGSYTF
UniProt P0A263, 22-378: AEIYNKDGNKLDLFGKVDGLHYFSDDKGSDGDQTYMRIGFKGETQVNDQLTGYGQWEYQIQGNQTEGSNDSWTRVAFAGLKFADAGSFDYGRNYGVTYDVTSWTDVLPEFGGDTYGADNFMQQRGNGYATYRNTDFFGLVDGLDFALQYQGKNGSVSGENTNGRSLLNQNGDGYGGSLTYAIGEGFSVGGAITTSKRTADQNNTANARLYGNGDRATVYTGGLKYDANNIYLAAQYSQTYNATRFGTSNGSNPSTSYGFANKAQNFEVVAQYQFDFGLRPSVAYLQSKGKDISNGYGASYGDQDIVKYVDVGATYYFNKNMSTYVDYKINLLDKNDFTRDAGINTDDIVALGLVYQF

Results on 1 substance are retold here after publication PMC12312913.

Regarding “Gifsy-1 central tail tip J protein with Flag tag”, the koff in assay [1] worked out at 5.69e-07 s⁻¹; in assay [2], 9.99e-06 s⁻¹.

What is called koff is a measure of how fast the partners let go of each other. A lower koff goes with slow dissociation.
